Earlier results as cited in EP4631504A1, “COMPOSITION FOR PREVENTION OR TREATMENT OF FABRY'S DISEASE” (Korea Advanced Institute of Science and Technology, priority 2022, dated 2024).

Amino acid sequences for entries named in this document (tags omitted).
UniProt O75116, whole entry, species assumed: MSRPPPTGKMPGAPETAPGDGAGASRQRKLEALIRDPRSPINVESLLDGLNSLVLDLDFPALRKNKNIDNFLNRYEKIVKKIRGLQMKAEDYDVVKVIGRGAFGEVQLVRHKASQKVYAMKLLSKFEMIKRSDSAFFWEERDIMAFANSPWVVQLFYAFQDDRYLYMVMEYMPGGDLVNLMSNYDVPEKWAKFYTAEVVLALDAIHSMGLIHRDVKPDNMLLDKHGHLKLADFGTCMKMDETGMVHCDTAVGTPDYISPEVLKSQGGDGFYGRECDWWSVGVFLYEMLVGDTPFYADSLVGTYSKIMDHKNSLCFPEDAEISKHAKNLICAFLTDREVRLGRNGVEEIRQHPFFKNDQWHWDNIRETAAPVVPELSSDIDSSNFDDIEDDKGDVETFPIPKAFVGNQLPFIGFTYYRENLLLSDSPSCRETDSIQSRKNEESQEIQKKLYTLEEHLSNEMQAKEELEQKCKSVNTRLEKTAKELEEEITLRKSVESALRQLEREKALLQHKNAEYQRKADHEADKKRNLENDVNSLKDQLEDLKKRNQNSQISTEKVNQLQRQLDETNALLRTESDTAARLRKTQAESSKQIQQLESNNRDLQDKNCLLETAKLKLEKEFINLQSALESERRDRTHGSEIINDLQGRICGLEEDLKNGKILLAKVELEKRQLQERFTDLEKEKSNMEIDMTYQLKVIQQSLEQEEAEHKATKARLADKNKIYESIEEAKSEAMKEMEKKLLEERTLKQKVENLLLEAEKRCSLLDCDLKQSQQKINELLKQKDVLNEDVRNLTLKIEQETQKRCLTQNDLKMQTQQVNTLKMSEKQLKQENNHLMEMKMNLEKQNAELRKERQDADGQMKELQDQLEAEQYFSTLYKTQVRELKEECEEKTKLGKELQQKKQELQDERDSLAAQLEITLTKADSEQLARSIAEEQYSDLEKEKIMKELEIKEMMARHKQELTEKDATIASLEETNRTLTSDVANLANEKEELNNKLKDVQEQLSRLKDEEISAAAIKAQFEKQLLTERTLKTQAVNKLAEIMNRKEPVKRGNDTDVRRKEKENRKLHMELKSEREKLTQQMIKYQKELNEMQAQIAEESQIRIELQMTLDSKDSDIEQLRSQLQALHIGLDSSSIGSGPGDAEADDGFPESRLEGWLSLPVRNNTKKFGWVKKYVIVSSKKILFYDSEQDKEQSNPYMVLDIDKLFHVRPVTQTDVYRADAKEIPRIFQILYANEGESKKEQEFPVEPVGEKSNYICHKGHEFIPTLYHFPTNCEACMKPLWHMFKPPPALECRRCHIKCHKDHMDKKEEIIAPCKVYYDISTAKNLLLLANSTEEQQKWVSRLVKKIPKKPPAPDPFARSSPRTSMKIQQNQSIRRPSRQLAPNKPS

Target: Rock2 (Homo sapiens, UniProt O75116)
Conditions: cited from earlier work

Netarsudil mesylate
IC50: 1 to 2 nM
